{"source": "ChEMBL document CHEMBL1121641", "about": "“Synthesis and anticonvulsant activity of N-(benzoylalkyl)imidazoles and N-(omega-phenyl-omega-hydroxyalkyl)imidazoles” (J Med Chem, 1981)", "key": {"[1]": {"assay": "Lethal dose determined in mice after oral administration", "type": "toxicity, organism-based", "conditions": "mouse, in vivo", "summary_of_the_method": "(§1)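 Mice dosed ip or po with aqueous solution or suspension in 10% aqueous acacia gum, 10 animals per dose. Mortality recorded over 7 days, with behavioural symptoms observed by the Irwin scheme. LD50 derived from dose–mortality data.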"}, "[2]": {"assay": "Lethal dose in mice determined after intraperitoneal administration.", "type": "toxicity, organism-based", "conditions": "mouse, in vivo, ip", "summary_of_the_method": "as §1"}}}
{"compound": "Cl.O=C1NC(=O)C(c2ccccc2)(c2ccccc2)N1", "note": "[PHENYTOIN CHLORIDE]", "values": [{"measurement": "LD50", "setting": "[1]", "result": 284, "unit": "mg/kg"}, {"measurement": "LD50", "setting": "[2]", "result": 194, "unit": "mg/kg"}]}
